Assay results: patent EP1903056A2

What was measured:
Conditions in all cases: remark: other sources report otherwise
[1] = molecular target: HLA-B*4501 (human); experiment: competitive inhibition assay, purified HLA
[2] = molecular target: HLA-B*1801 (human); experiment: competitive inhibition assay, purified HLA
[3] = molecular target: HLA-B*4001 (human); experiment: competitive inhibition assay, purified HLA
[4] = molecular target: HLA-B*4402 (human); experiment: competitive inhibition assay, purified HLA
[5] = molecular target: HLA-B*4402 (human); experiment: competition binding assay, purified HLA
[6] = molecular target: HLA-B*4001 (human); experiment: competition binding assay, purified HLA
[7] = molecular target: HLA-B*4501 (human); experiment: competition binding assay, purified HLA
[8] = molecular target: HLA-B*1801 (human); experiment: competition binding assay, purified HLA
[9] = molecular target: HLA-B*4002 (human); experiment: competition binding assay, purified HLA

B1: … (peptide)
peptide: AEGKEVLLLV
B1 was tested, and the IC50 [1] was 994 nM.

B2: … (peptide)
peptide: REIIYPNASL
B2 gave an IC50 [1] of 954 nM and an IC50 [2] of 4340 nM.

B3: … (peptide)
peptide: CETQNPVSA
B3 was tested, and the IC50 [3] was 7020 nM.

B4: … (peptide)
peptide: GERVDGNRQII
B4 was tested, and the IC50 [4] was 871 nM and the IC50 [2] was 764 nM.

B5: … (peptide)
peptide: NEEATGQFRVY
B5 gave an IC50 [3] of 3250 nM and an IC50 [1] of 3990 nM.

B6: … (peptide)
peptide: CEPETQDAT
B6 showed an IC50 [3] of 3650 nM and an IC50 [2] of 4010 nM.

B7: … (peptide)
peptide: GENLNLSCHA
In the case of B7, the IC50 [4] is reported as 8610 nM, the IC50 [1] is reported as 271 nM and the IC50 [2] is reported as 14400 nM.

B8: … (peptide)
peptide: GENLNLSCHAA
B8 was tested, and the IC50 [4] was 1910 nM, the IC50 [3] was 4560 nM and the IC50 [2] was 7840 nM.

B9: QELFIPNI (peptide)
peptide: QELFIPNI
B9 was tested, and the IC50 [4] was 1340 nM, the IC50 [3] was 5820 nM and the IC50 [1] was 1320 nM.

B10: … (peptide)
peptide: PEIQNTTYLWW
B10 was tested, and the IC50 [3] was 749 nM and the IC50 [1] was 1360 nM.

B11: … (peptide)
peptide: QELFISNIT
Work on B11 yielded an IC50 [4] of 2330 nM and an IC50 [3] of 6570 nM.

B12: … (peptide)
peptide: GERVDGNRQI
In the case of B12, the IC50 [1] is reported as 19500 nM.

B13: AELPKPSI (peptide)
peptide: AELPKPSI
B13 was tested, and the IC50 [4] was 959 nM, the IC50 [1] was 2610 nM and the IC50 [2] was 7420 nM.

B14: AEGKEVLL (peptide)
peptide: AEGKEVLL
B14 was tested, and the IC50 [4] was 17300 nM, the IC50 [3] was 1310 nM and the IC50 [1] was 14200 nM. It also gave an IC50 [2] of 11500 nM.

B15: QBLFISNI (peptide)
peptide: QELFISNI
With B15 the IC50 [4] was 2280 nM.

B16: … (peptide)
peptide: CEPEAQNTTY
B16 gave an IC50 [1] of 17300 nM.

B17: … (peptide)
peptide: CEPEAQNTTYL
Work on B17 yielded an IC50 [4] of 3420 nM and an IC50 [2] of 962 nM.

B18: Her2/neu 765 … (peptide)
peptide: KEILDEAYVMA
Binder B18 has an IC50 [5] of 11500 nM, an IC50 [6] of 252 nM and an IC50 [7] of 123 nM. It also gave an IC50 [8] of 731 nM.

B19: Her2/neu 836 LB… (peptide)
peptide: LEDVRLVHRDL
With B19 the IC50 [5] was 818 nM, the IC50 [9] was 641 nM and the IC50 [7] was 2380 nM. For the same binder, the IC50 [8] was 729 nM.

B20: Her2/neu 39 PETHLDML (peptide)
peptide: PETHLDML
For B20, the IC50 [9] was 6120 nM, the IC50 [6] was 8390 nM and the IC50 [8] was 1950 nM.

B21: Her2/neu 39 … (peptide)
peptide: PETHLDMLRHL
Binder B21 has an IC50 [5] of 11500 nM, an IC50 [7] of 4330 nM and an IC50 [8] of 1320 nM.

B22: Her2/neu 320 … (peptide)
peptide: QEVTAEDGT
With B22 the IC50 [5] was 7890 nM, the IC50 [7] was 1840 nM and the IC50 [8] was 5210 nM.

B23: Her2/neu 331 CB… (peptide)
peptide: CEKCSKPCARV
B23 was tested, and the IC50 [7] was 1560 nM and the IC50 [8] was 1170 nM.

B24: … (peptide)
peptide: YECGIQNEL
Work on B24 yielded an IC50 [4] of 452 nM and an IC50 [1] of 855 nM.

B25: … (peptide)
peptide: MESPSAPPHRW
B25 gave an IC50 [3] of 943 nM and an IC50 [1] of 359 nM.
